# Experimental data taken from article PMC8292411 (British Journal of Cancer, 2021).
# Legend:
# [1] = system: advanced HCC with MET overexpression; test: Phase 2 randomised efficacy, tepotinib vs sorafenib (TTP, PFS, OS, response; RECIST v1.1); assay type: in vivo, human; settings: Phase 2, mITT
# Excerpt: (§1) Patients in both phases continued to receive allocated therapy until disease progression, intolerable toxicity or withdrawal of consent.
# In Phase 2, the primary endpoint was independent review committee (IRC)-assessed time to progression (TTP) per Response Evaluation Criteria in Solid Tumors (RECIST) v1.1. Secondary endpoints included investigator-assessed TTP, IRC- and investigator-assessed progression-free survival (PFS), objective response rate (ORR), disease control rate, OS and safety. In both phases, tumour assessments were performed according to RECIST v1.1 based on scans taken at the end of every second cycle until Cycle 13, and every four cycles thereafter.
# (§2) In Phase 2, analyses were conducted according to randomised treatment assignment. […] In total, 100 TTP events were required to ensure 80% power (with a two-sided significance level of 10%) for rejecting the null hypothesis of equal treatment effect between treatment arms, assuming a true hazard ratio (HR) of 0.6. […] For the primary and secondary time-to-event endpoints, treatment groups were compared in the mITT population, applying a two-sided log-rank test, stratified by BCLC stage (α = 10%).
# [2] = system: SACT-naive Asian patients with aHCC with MET overexpression; test: Phase 2 safety (adverse events, NCI-CTCAE v4.0); settings: for treatment-related AEs: ALT increased / treatment-related AEs: AST increased / treatment-related AEs: Alopecia / treatment-related AEs: Amylase increased / treatment-related AEs: Blood bilirubin increased / treatment-related AEs: Blood creatinine increased / treatment-related AEs: Decreased appetite / treatment-related AEs: Dermatitis acneiform / treatment-related AEs: Diarrhoea / treatment-related AEs: Fatigue / treatment-related AEs: Hypertension / treatment-related AEs: Hypoalbuminaemia / treatment-related AEs: Lipase increased / treatment-related AEs: Oedema peripheral / treatment-related AEs: Overall / treatment-related AEs: PPES: Phase 2, safety analysis set
# Method: as §1
# DLTs are defined in Supplementary Table 3.
# as §2
compound,measurement,setting,value
"CN1CCC(COc2cnc(-c3cccc(Cn4nc(-c5cccc(C#N)c5)ccc4=O)c3)nc2)CC1 [Tepotinib, tepotinib hydrochloride hydrate]",ORR by IRC,[1],10.5%
same,median OS,[1],9.3 months
same,median PFS assessed by IRC,[1],2.8 months
same,median investigator-assessed PFS,[1],3.2 months
same,median investigator-assessed TTP,[1],5.6 months
same,Best overall response: Complete response,[1]; IRC,0 (0.0)
same,Best overall response: Non-complete response/non-partial response,[1]; IRC,2 (5.3)
same,Best overall response: Not evaluable,[1]; IRC,4 (10.5)
same,Best overall response: Partial response,[1]; IRC,4 (10.5)
same,Best overall response: Progressive disease,[1]; IRC,13 (34.2)
same,Best overall response: Stable disease,[1]; IRC,15 (39.5)
same,Objective response rate,[1]; IRC,4 (10.5) n (%)
same,best overall response of PR,[1]; IRC,10.5%
same,disease control,[1]; IRC,50%
same,disease control rate,[1]; IRC,19 (50.0) n (%)
same,median IRC-assessed time to progression (TTP),"[1]; tepotinib 500 mg QD, sorafenib 400 mg twice daily",2.9 months
same,"IRC-assessed TTP, stratified HR",[1]; tepotinib versus sorafenib,0.42
same,"OS, stratified HR",[1]; tepotinib versus sorafenib,0.73
same,"PFS assessed by IRC, stratified HR",[1]; tepotinib versus sorafenib,0.53
same,"investigator-assessed PFS, HR",[1]; tepotinib versus sorafenib,0.59
same,"investigator-assessed TTP, HR",[1]; tepotinib versus sorafenib,0.45
same,deaths deemed treatment-related,[2]; Phase 2,one instance of upper gastrointestinal haemorrhage
same,"decreased appetite, any cause",[2]; Phase 2,35.6%
same,"diarrhoea, any cause",[2]; Phase 2,37.8%
same,patients who died due to AEs of any cause,[2]; Phase 2,13.3%
same,patients with Grade ≥3 AEs of any cause,[2]; Phase 2,60%
same,"peripheral oedema, any cause",[2]; Phase 2,42.2%
same,permanent discontinuation due to QT interval prolongation,[2]; Phase 2,1 n
same,permanent discontinuation due to ascites,[2]; Phase 2,1 n
same,permanent discontinuation due to fatigue,[2]; Phase 2,2 n
same,permanent discontinuation due to hepatic encephalopathy,[2]; Phase 2,1 n
same,permanent discontinuation due to hepatic failure,[2]; Phase 2,1 n
same,permanent discontinuation due to upper gastrointestinal haemorrhage,[2]; Phase 2,1 n
same,permanent treatment discontinuation due to AEs of any cause,[2]; Phase 2,15.6%
same,treatment-related diarrhoea,"[2]; Phase 2, any grade",35.6%
same,treatment-related fatigue,"[2]; Phase 2, any grade",20.0%
same,treatment-related peripheral oedema,"[2]; Phase 2, any grade",24.4%
same,patients with AEs of any cause (in words),"[2]; Phase 2, n = 45",All patients
same,treatment-related AEs: ALT increased,[2]; Any grade,4 (8.9) n (%)
same,treatment-related AEs: AST increased,[2]; Any grade,5 (11.1) n (%)
same,treatment-related AEs: Alopecia,[2]; Any grade,1 (2.2) n (%)
same,treatment-related AEs: Amylase increased,[2]; Any grade,3 (6.7) n (%)
same,treatment-related AEs: Blood bilirubin increased,[2]; Any grade,2 (4.4) n (%)
same,treatment-related AEs: Blood creatinine increased,[2]; Any grade,6 (13.3) n (%)
same,treatment-related AEs: Decreased appetite,[2]; Any grade,8 (17.8) n (%)
same,treatment-related AEs: Dermatitis acneiform,[2]; Any grade,0 (0.0) n (%)
same,treatment-related AEs: Diarrhoea,[2]; Any grade,16 (35.6) n (%)
same,treatment-related AEs: Fatigue,[2]; Any grade,9 (20.0) n (%)
same,treatment-related AEs: Hypertension,[2]; Any grade,0 (0.0) n (%)
same,treatment-related AEs: Hypoalbuminaemia,[2]; Any grade,5 (11.1) n (%)
same,treatment-related AEs: Lipase increased,[2]; Any grade,1 (2.2) n (%)
same,treatment-related AEs: Oedema peripheral,[2]; Any grade,11 (24.4) n (%)
same,treatment-related AEs: Overall,[2]; Any grade,37 (82.2) n (%)
same,treatment-related AEs: PPES,[2]; Any grade,8 (17.8) n (%)
same,treatment-related AEs: ALT increased,[2]; Grade ≥ 3,0 (0.0) n (%)
same,treatment-related AEs: AST increased,[2]; Grade ≥ 3,2 (4.4) n (%)
same,treatment-related AEs: Alopecia,[2]; Grade ≥ 3,0 (0.0) n (%)
same,treatment-related AEs: Amylase increased,[2]; Grade ≥ 3,2 (4.4) n (%)
same,treatment-related AEs: Blood bilirubin increased,[2]; Grade ≥ 3,1 (2.2) n (%)
same,treatment-related AEs: Blood creatinine increased,[2]; Grade ≥ 3,0 (0.0) n (%)
same,treatment-related AEs: Decreased appetite,[2]; Grade ≥ 3,0 (0.0) n (%)
same,treatment-related AEs: Dermatitis acneiform,[2]; Grade ≥ 3,0 (0.0) n (%)
same,treatment-related AEs: Diarrhoea,[2]; Grade ≥ 3,2 (4.4) n (%)
same,treatment-related AEs: Fatigue,[2]; Grade ≥ 3,2 (4.4) n (%)
same,treatment-related AEs: Hypertension,[2]; Grade ≥ 3,0 (0.0) n (%)
same,treatment-related AEs: Hypoalbuminaemia,[2]; Grade ≥ 3,0 (0.0) n (%)
same,treatment-related AEs: Lipase increased,[2]; Grade ≥ 3,0 (0.0) n (%)
same,treatment-related AEs: Oedema peripheral,[2]; Grade ≥ 3,0 (0.0) n (%)
same,treatment-related AEs: Overall,[2]; Grade ≥ 3,13 (28.9) n (%)
same,treatment-related AEs: PPES,[2]; Grade ≥ 3,1 (2.2) n (%)
same,"treatment-related AEs, Grade ≥3, overall","[2]; Phase 2, text",28.9%
same,"treatment-related AEs, any grade, overall","[2]; Phase 2, text",82.2%

# Where a name gives a salt, the structure may show the parent alone.
